Experiments:
[1] = system: HER2+ metastatic breast cancer; conditions: after about 1 year of PFS; cited from earlier work
[2] = system: HER2+ metastatic breast cancer; experiment: Progression free survival of HER2+ mBC patients treated with trastuzumab and chemotherapy; type: in vivo, human
From the text: Here we retrospectively evaluated the pretreatment serum metabolome for association with PFS in a cohort of 23 trastuzumab-treated metastatic breast cancer patients. […] This metabolite BoR could be used to screen future patients to predict response to trastuzumab.
Patients were subdivided into early progressors (PFS<301 days) and late progressors (PFS≥301 days). […] The remaining patients received trastuzumab as part of second-, third-, fourth-line or beyond.

## trastuzumab: monoclonal antibody that binds to the HER2 receptor inhibiting dimerization
[1]
  patients who stop responding to therapy: approximately 75%
[2]; 23 HER2+ mBC patients, trastuzumab and chemotherapy
  median PFS: 301 days
[2]; PFS<301 days, of 23 patients
  Non-responders (NR), early progressors: 13
[2]; PFS≥301 days, of 23 patients
  Responders (R), late progressors: 10

Reference: patent publication US20230087439A1, “Nmr-Metabolite-Signature For Identifying Cancer Patients Resistant To Cdk4/6 Inhibitors, Endocrine Therapy and Anti-HER2 Therapy” (Olaris, inc., priority 2018, published 2023)
